For orientation: IC50 means the point on the concentration scale where inhibition reaches its midpoint.

This test deals with T1, recombinant human EG5 motor domain (Homo sapiens, UniProt P52732).
T1 construct: recombinant human EG5 motor domain; purchased Cytoskeleton, Inc
T1 sequence (P52732 18-359 limits assumed): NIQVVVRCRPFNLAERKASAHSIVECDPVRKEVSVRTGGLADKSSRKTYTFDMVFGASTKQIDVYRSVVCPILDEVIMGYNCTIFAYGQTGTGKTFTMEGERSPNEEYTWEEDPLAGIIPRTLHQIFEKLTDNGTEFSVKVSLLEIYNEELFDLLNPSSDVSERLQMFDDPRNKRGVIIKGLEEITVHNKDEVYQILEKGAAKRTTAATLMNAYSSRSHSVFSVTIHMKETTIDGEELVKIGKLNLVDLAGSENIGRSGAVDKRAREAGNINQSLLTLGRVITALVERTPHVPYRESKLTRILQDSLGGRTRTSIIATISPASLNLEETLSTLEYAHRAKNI
Put plainly: microtubule-activated Eg5 ATPase assay (Cytoskeleton, Inc). It counts as biochemical. As to conditions: microtubule-activated ATPase activity of recombinant human EG5 motor domain.

Take “(R)-2-amino-3-(((4-methoxyphenyl)diphenylmethyl)thio)propanamide [Compound 3.9]”: the IC50 is more than 100 µM.

These data come from patent publication US8349899B1 (Arrowhead Center, Inc., priority 2008, dated 2013).
